Where “and” joins values, the source holds several entries; their conditions need not be identical. Equal entries are not always repeated.
How the values were obtained:
[1] = system: Ba/F3 cells of EGFR-T790M/del19; assay: Drug sensitivity screening at 100 nM, Ba/F3 EGFR-T790M/del19; assay type: cell-based; conditions: 0.1 µM
Experimental: (§1) After the incubation, cell viability was measured using CellTiter-Glo assay. The relative cell viability was calculated as a ratio of each value to that of the DMSO control.

[2] = system: Ba/F3 cells of EGFR-del19; assay: Drug sensitivity screening at 100 nM, Ba/F3 EGFR-del19; assay type: cell-based; conditions: 0.1 µM
Experimental: as §1

Compound | Relative cell viability (% of DMSO control) [1] | Relative cell viability (% of DMSO control) in del19 Ba/F3 cells [2]
C[C@]12O[C@H](C[C@]1(O)CO)n1c3ccccc3c3c4c(c5c6ccccc6n2c5c31)CNC4=O [CEP701] | 8.811 and 6.835 and 8.335 | –
CS(=O)(=O)CCNCc1ccc(-c2ccc3ncnc(Nc4ccc(OCc5cccc(F)c5)c(Cl)c4)c3c2)o1 [Lapatinib, lapatinib] | – | 138.183 and 130.036 and 116.359

Source: PMC5355811 (Nature Communications, 2017)
